## Apparent affinities of Ab-95 variants for a coronavirus HR2 peptide

Target peptide (SARS-CoV-2 spike, HR2 region): PDVDLGDISGINAS

Parent: Ab-95, a human scFv built as VH, three GGGGS repeats, VL. Only the CDRs of the light chain vary.
VH: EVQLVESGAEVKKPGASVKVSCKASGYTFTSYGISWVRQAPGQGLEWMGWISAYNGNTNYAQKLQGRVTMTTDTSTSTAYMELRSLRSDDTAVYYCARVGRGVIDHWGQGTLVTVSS
VL: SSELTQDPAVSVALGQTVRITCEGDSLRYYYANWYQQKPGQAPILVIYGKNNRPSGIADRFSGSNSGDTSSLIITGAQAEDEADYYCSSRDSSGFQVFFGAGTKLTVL

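The parent was found by panning a naive human phage display library on the peptide. In library AAYL52, one, two or three CDR residues were substituted; doubles and triples were drawn at random. Affinity was read by AlphaSeq, a pooled yeast mating assay with surface-displayed partners. Mating (16 h, 30 °C) was followed by selection of diploids and sequencing of their barcodes. Each replicate has its own calibration line, from reference interactions of the BCL2 family. There are three technical replicates.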

Each variant is given by its three light chain CDRs, as the data file delimits them; those of the parent are EGDSLRYYYAN, GKNNRPS, SSRDSSGFQVF.
The read-out is the apparent dissociation constant on a log10 scale (nM): the lower, the stronger.
A pair that was not seen in that replicate is written "n.d."; this usually means weak binding, but a binder can also be missed.
As a blank, each scFv also met three strains without target: over library AAYL52, 28% of these pairings were detected, typically at 3.91 and seldom below 2.90. Also given: how often the same scFv was detected with the empty control strains, with their mean in brackets.

CDR-L1	CDR-L2	CDR-L3	log10 Kd, replicates	empty controls
EGDHLRYYCAN	GKNNRIS	SSRDSSGFQVF	2.70 3.31 2.29	5 of 9 (3.99)
EGDSLRYYTAN	GKNNRPS	SSRKGSGFQVF	n.d. n.d. n.d.	3 of 9 (3.60)
HGDSLDYYYAN	GKNNRPS	SSRDSSGHQVF	3.44 3.22 2.69	5 of 9 (3.85)
EGDSLRYYYAN	GVNNRPS	SSRYSSIFQVF	3.74 n.d. n.d.	1 of 9 (3.35)
EGDSLRYYYAN	GKNNRPS	SSRDSPGFQRF	2.57 2.64 2.49	3 of 9 (4.03)
EGDSVRYYYAN	GKNQRWS	SSRDSSGFQVF	3.00 2.30 2.83	3 of 9 (3.28)
EGDWLRYYYAN	GKNNGPS	SSRDSSGFQVF	4.64 n.d. n.d.	2 of 9 (3.78)
VGDSLRIYFAN	GKNNRPS	SSRDSSGFQVF	2.81 n.d. n.d.	1 of 9 (3.75)
EGESLRYYYAN	GKNNRPS	SSRDSNGFQVL	n.d. 3.21 2.44	0 of 9
EIDSLRYYYAN	PKNNRPS	SSRDSKGFQVF	n.d. n.d. n.d.	1 of 9 (3.72)
DGDSLRYYYAN	GKYNRPS	SSRDSSGFQVN	n.d. n.d. n.d.	1 of 9 (3.67)
ELDSLRYYLAN	GKNNRPS	SSRDSSGFQWF	n.d. n.d. 3.76	0 of 9
EGDSLRYYYAN	GKWNRPT	SSRDSSGFQDF	n.d. n.d. n.d.	1 of 9 (3.49)
EKDSLRYYYAN	GKNNRPT	SSRDSSMFQVF	n.d. n.d. n.d.	0 of 9
EGDSLKYYYAN	GKNLRPS	SSRDSSDFQVF	n.d. n.d. n.d.	3 of 9 (3.63)
EGDSLDDYYAN	GKNNRPS	SCRDSSGFQVF	1.84 1.36 2.49	0 of 9
EGDSGRMYYAN	RKNNRPS	SSRDSSGFQVF	4.90 5.31 3.26	1 of 9 (3.94)
ECDSLRYYYAN	GKNNRPS	SSRDSSVFQVF	2.83 2.93 3.17	2 of 9 (4.46)
EGDSLRQYYAN	GKLNRPS	SSRDSSGFAVF	n.d. 4.21 2.77	3 of 9 (3.23)
EGGSLNYYYAN	GRNNRPS	SSRDSSGFQVF	2.50 1.94 1.57	3 of 9 (3.61)
EGDSLRYYYAN	GKNNRPS	SSRDSSNTQVF	2.00 2.58 1.54	0 of 9
EVDSFRYYYAN	GKNNRPS	SSRKSSGFQVF	3.82 4.16 n.d.	2 of 9 (4.25)
EGGSLRTYYAN	GKNNRPS	SSRDSCGFQVF	3.00 2.50 3.88	5 of 9 (3.81)
EGDSLRYYYAN	GKNNRPS	SSRDSSGFQAF	3.83 3.29 2.22	1 of 9 (4.72)
KGDSLRYYYAN	GKNNVPS	SSRDSSCFQVF	2.95 3.42 2.35	4 of 9 (3.83)
EGDSMRYYYAN	GKNNRPL	SSRDSSGPQVF	3.16 3.00 3.25	4 of 9 (3.87)
EGDSLRYYYAN	GKNNRTS	SSRDSSGFQTF	2.96 3.09 2.24	0 of 9
EGDSLRYYYAN	GKNNRPK	FSRDSVGFQVF	n.d. 3.71 3.75	3 of 9 (3.75)
EGDSLKYYYAN	GKNNRPS	SSREHSGFQVF	n.d. 4.09 n.d.	1 of 9 (3.86)
EGDSLRYPYAN	GKNNRPC	SSADSSGFQVF	5.23 n.d. n.d.	2 of 9 (3.67)
EGQSLRYYYAN	GKNNRSS	FSRDSSGFQVF	3.75 3.39 2.13	3 of 9 (3.95)
EGDSLRLYYAN	GKNNGPS	SSRDHSGFQVF	n.d. n.d. 4.33	5 of 9 (3.92)
EGDSLCYYYAN	GKNNRPS	SSRDSMVFQVF	3.29 2.92 4.54	3 of 9 (3.58)
EGDSLRYYYAN	GKNNRPS	SSQDSSGKSVF	2.89 2.99 2.71	4 of 9 (3.58)
EGDSLCYYYAN	GKNNRPS	SSRDSSAFQKF	4.52 3.17 2.89	4 of 9 (4.05)
EGDSCRKYYAN	GKNNRPS	SSRNSSGFQVF	3.40 n.d. 3.17	0 of 9
EGDSARYYYAN	GKNNRPS	SCRDSSQFQVF	4.69 n.d. 4.11	3 of 9 (3.60)
EGDSLRYYYAN	GKNNRTS	QSRDSSGAQVF	3.02 3.91 2.86	4 of 9 (3.93)
EGDSHRYYYAN	GKNNRPS	SERDSSGFQVA	5.60 3.95 3.74	5 of 9 (4.48)
EGKSLRYYYAL	GKNMRPS	SSRDSSGFQVF	5.75 5.86 n.d.	4 of 9 (4.00)
EGDSLRYYYAN	GGNIRPS	SSRDSSGFHVF	2.21 2.04 2.44	3 of 9 (4.37)
EGDSLRYYPGN	GKNNRPS	CSRDSSGFQVF	2.22 2.33 2.66	2 of 9 (3.89)
EGDSLRYYMAN	GKNNRPS	SHRDSSGFAVF	2.49 2.36 2.01	4 of 9 (3.90)
EQHSLEYYYAN	GKNNRPS	SSRDSSGFQVF	3.49 2.97 n.d.	4 of 9 (3.83)
EMDSLRYYVAN	SKNNRPS	SSRDSSGFQVF	3.05 4.21 n.d.	1 of 9 (3.49)
EGDSLRYKYAN	GKNNRPE	SVRDSSGFQVF	0.82 0.83 0.13	4 of 9 (4.23)
EGNSLRYYYAN	PKNNRAS	SSRDSSGFQVF	4.17 5.68 3.91	7 of 9 (4.01)

A selection of 3 entries from above:

{"CDR-L1": "EGNSLRYYYAN", "CDR-L2": "PKNNRAS", "CDR-L3": "SSRDSSGFQVF", "log10 Kd, replicates": "4.17 5.68 3.91", "empty controls": "7 of 9 (4.01)"}
{"CDR-L1": "EGDSCRKYYAN", "CDR-L2": "GKNNRPS", "CDR-L3": "SSRNSSGFQVF", "log10 Kd, replicates": "3.40 n.d. 3.17", "empty controls": "0 of 9"}
{"CDR-L1": "EGKSLRYYYAL", "CDR-L2": "GKNMRPS", "CDR-L3": "SSRDSSGFQVF", "log10 Kd, replicates": "5.75 5.86 n.d.", "empty controls": "4 of 9 (4.00)"}

Values reported by Engelhart et al. 2022, doi:10.1038/s41597-022-01779-4 (FLAb copy).